Data taken from ChEMBL document CHEMBL1123707.
Only a part of the results on these compounds is given; other tests are left out.

Tested on: CCRF-CEM
Test: In vitro growth inhibition against CCRF-CEM human lymphoblast cells

Compound: ClCC[Se][Se]CCCl
- IC50: 250 nM
